Laboratory results: PubChem BioAssay AID886 (National Center for Advancing Translational Sciences (NCATS), 2007)
Only a part is listed here, and it is no random draw. Records with an inconclusive call do not appear. Where a call stands in place of a potency, no number is given. Active and inactive are the calls of the source. Calls follow the shape of the dose curve; as a rule, active = well fitted inhibition curve with a large enough effect; inconclusive = small, poorly fitted or top-dose-only effect; inactive = no such curve, though single readings can be large or run the other way.

By UniProt entry, the sequences of proteins in these tests, tags left out. Where a name states a change or a piece, a line headed by the entry shows the natural chain unless it says otherwise.
UniProt Q99714: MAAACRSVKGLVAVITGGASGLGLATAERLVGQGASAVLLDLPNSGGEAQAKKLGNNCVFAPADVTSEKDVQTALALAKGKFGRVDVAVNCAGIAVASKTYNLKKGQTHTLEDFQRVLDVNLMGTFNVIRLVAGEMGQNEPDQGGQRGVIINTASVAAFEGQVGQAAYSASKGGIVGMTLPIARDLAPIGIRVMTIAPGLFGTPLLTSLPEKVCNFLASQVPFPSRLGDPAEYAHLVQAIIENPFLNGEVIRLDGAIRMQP

target: 3-hydroxyacyl-CoA dehydrogenase type-2 (Homo sapiens) (UniProt Q99714); test: qHTS Assay for Inhibitors of HADH2 (Hydroxyacyl-Coenzyme A Dehydrogenase, Type II); conditions: recombinant HADH2, NADH fluorescence, beta-hydroxybutyryl-CoA; series mostly up to 57.1 µM; also: nearly all actives have a fitted effect of over 60% in size
Potency is read from the fitted curve at half-maximal effect.

SMILES	activity change, negative = inhibition	Potency
Cc1cc([N+](=O)[O-])cc([N+](=O)[O-])c1O	inactive	
[N-]=[N+]=Nc1ccc([As](=O)(O)O)cc1	inactive: 0.985% [at 11.4 µM]	
O=C(OC1CN2CCC1CC2)c1cccc(Cl)c1 (stereo not given)	inactive	
c1nnnn1CCn1cnnn1	inactive	
O=P(Nc1nccs1)(c1ccccc1)c1ccccc1	inactive	
C[C@@H](O)COc1ccc([As](=O)(O)O)cc1N	inactive: 13.3% [at 11.4 µM]	
CN1CCC[C@H](OC(=O)C(c2ccccc2)c2ccccc2)C1	inactive: 24.9% [at 11.4 µM]	
O=P1(Nc2nc3ccc(Cl)cc3s2)COc2ccccc2O1 (stereo not given)	inactive	
COC(=O)c1cc2c(s1)N=C(c1ccccc1)N(C)P2(=O)N1CCOCC1 (stereo not given)	inactive	
CN(C(=O)Cc1ccc(Cl)c(Cl)c1)[C@H]1CCCC[C@@H]1N1CCCC1	inactive	
C(Cc1nn[nH]n1)c1nn[nH]n1	inactive: -14.1% [at 11.4 µM]	
[N-]=[N+]=NCC(O)CN=[N+]=[N-] (stereo not given)	inactive: -6.15% [at 11.4 µM]	
O=[N+]([O-])c1ccc(C[As](=O)(O)O)cc1	inactive: 1.28% [at 11.4 µM]	
NCC[C@@H](N)CSP(=O)(O)O	inactive: -10.5% [at 11.4 µM]	
Cc1c2non([O-])c-2c(C)[n+](=O)[n+]1[O-]		active: 1 µM
O=C(CO)Nc1ccc([As](=O)(O)O)cc1	inactive: 5.43% [at 11.4 µM]	
CN(C(=O)Cc1ccccc1)[C@@H]1CC[C@@]2(CCCO2)C[C@H]1N1CCCC1	inactive	
CN(N=O)C(=N)N[N+](=O)[O-]	inactive	
O=C(COc1ccccc1)OC1CN2CCC1CC2 (stereo not given)	inactive	
O=C(O)[C@@H](O)c1ccc([As](=O)(O)O)cc1	inactive: 4.11% [at 11.4 µM]	

SMILES	activity change, negative = inhibition	Potency
COP1(=S)c2c(C)nn(CCC#N)c2N=C(c2ccc(F)cc2)N1C (stereo not given)	inactive	
NC(=O)Nc1cc([As](=O)(O)O)cc(I)c1O	inactive: -22.8% [at 11.4 µM]	
O=C(OC1CN2CCC1CC2)C12CC3CC(CC(C3)C1)C2 (stereo not given)	inactive	
[N-]=[N+]=NCC(N)=O	inactive: 13.8% [at 11.4 µM]	
O=[As]c1ccc(S(=O)(=O)NCCO)cc1 (stereo not given)	inactive: -4.17% [at 11.4 µM]	
O=[As](O)(O)c1ccc([As](=O)(O)O)cc1	inactive: -2.53% [at 11.4 µM]	
CCOP1(=S)c2c(C)nn(CCC#N)c2N=C(c2ccccc2F)N1C (stereo not given)	inactive	
O=P(Nc1nccs1)(c1ccccc1)c1nc2ccccc2s1 (stereo not given)		active: 2 µM
CCOP1(=S)c2c(C)nn(CCC#N)c2N=C(c2ccc(F)cc2)N1C (stereo not given)	inactive	
NC(=O)Nc1ccc([As](=O)(O)O)cc1	inactive	
CN(C(=O)Cc1ccc(Cl)c(Cl)c1)[C@@H]1CC[C@@]2(CCCO2)C[C@H]1N1CCCC1	inactive	
NS(=O)(=O)Cc1ccc([As](=O)(O)O)cc1	inactive: 8.51% [at 11.4 µM]	
O=C(CC(=O)c1ccccc1)O[C@H]1CN2CCC1CC2	inactive: 14.7% [at 11.4 µM]	
Clc1n[nH]nc1-c1nn[nH][15n]1	inactive	
CN(CCCl)Cc1cc(Cl)c(NC2=NCCN2)c(Cl)c1	inactive	
O=P1(Nc2ccccn2)COc2ccccc2OC1	inactive	
CN(C(=O)Cc1ccc(Cl)c(Cl)c1)[C@@H]1CCCC[C@H]1N1CCCC1	inactive	
Cc1nn(-c2ccccc2)c2c1P(=O)(N1CCOCC1)N(C)C(c1ccccc1)=N2 (stereo not given)	inactive	
O=P1(Nc2ccc(Br)cn2)COc2ccccc2OC1	inactive	
O=P1(Nc2ncccn2)COc2ccccc2OC1	inactive	
